Reference: patent EP0832229B1 (IMMUNEX CORPORATION, dated 2004)

Columns and labels:
[1] = target: T1, dimeric murine CD40L (prepared substantially as described for the human CD40L) (murine, UniProt P27548 50-260, limits assumed); assay: BIAcore SPR, CD40/Fc captured by goat anti-human IgG1 Fc; K1 (site 1); experiment 1
T1 construct: also called Murine Dimer; not shown: Fc region, by analogy with human CD40L/Fc; not described further
T1 sequence (looked up): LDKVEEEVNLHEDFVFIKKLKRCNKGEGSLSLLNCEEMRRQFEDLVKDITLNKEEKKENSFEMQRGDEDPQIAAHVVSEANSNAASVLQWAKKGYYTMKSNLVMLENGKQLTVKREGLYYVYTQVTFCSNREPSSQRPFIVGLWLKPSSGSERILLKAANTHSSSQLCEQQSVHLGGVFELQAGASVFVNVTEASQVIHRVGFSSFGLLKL

[2] = target: T1, dimeric murine CD40L (prepared …); assay: BIAcore SPR, CD40/Fc captured by goat anti-human IgG1 Fc; K2 (site 2); experiment 1

- Ka [1]: 7e+09 M⁻¹
- Ka [2]: 4e+07 M⁻¹
B1: CD40/Fc fusion protein (extracellular domain of human CD40 fused to the Fc domain of human IgG1) (Fc fusion, UniProt P25942 21-193, looked up)
chain: EPPTACREKQYLINSQCCSLCQPGQKLVSDCTEFTETECLPCGESEFLDTWNRETHCHQHKYCDPNLGLRVQQKGTSETDTICTCEEGWHCTSEACESCVLHRSCSPGFGVKQIATGVSDTICEPCPVGFFSNVSSAFEKCHPWTSCETKDLVVQQAGTNKTDVVCGPQDRLR
notes: extracellular domain; Prepared as in WO 93/08207; also called C40/Fc; CD40/Fc dimer; not shown: Fc domain of human IgG1
